Data on 2 substances can be found in US20060258644A1, “Pyrrolobenzodiazepines and heteroaryl, aryl and cycloalkylamino ketone derivatives as follicle stimulating hormone receptor (FSH-R) antagonists” (Wyeth, priority 2005, published 2006).

Protein sequences, listed by entry. Tags and fused reporters are not part of them. Residues count along the entry.
UniProt P16473, 21-764: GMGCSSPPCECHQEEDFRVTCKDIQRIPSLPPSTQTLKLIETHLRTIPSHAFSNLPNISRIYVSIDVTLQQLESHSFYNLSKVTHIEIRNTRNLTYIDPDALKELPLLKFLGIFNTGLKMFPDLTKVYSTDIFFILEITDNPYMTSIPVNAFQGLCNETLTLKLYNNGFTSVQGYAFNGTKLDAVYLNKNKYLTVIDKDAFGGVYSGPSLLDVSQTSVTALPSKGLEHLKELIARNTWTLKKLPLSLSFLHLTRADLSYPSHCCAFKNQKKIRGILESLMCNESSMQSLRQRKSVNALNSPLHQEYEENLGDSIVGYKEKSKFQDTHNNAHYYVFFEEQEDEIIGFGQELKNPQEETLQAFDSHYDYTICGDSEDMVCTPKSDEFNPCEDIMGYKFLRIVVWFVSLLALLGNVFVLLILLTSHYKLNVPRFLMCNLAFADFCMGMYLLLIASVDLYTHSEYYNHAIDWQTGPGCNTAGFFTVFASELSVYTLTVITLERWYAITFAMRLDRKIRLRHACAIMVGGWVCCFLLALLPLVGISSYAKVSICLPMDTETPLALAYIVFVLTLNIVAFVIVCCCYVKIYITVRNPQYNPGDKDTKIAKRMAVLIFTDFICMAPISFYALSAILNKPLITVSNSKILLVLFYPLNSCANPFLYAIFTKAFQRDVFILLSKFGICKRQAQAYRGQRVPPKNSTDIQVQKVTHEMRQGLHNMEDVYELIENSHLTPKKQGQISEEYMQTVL

Assay type in all cases: cell-based
For assay [1], the target named is T1, human FSH receptor (Homo sapiens, UniProt P23945).
T1 construct: host or cells: CHO-K1 (CHO FSH-R 6CRE-Luc, 1D7 cells)
T1 sequence (P23945 18-695): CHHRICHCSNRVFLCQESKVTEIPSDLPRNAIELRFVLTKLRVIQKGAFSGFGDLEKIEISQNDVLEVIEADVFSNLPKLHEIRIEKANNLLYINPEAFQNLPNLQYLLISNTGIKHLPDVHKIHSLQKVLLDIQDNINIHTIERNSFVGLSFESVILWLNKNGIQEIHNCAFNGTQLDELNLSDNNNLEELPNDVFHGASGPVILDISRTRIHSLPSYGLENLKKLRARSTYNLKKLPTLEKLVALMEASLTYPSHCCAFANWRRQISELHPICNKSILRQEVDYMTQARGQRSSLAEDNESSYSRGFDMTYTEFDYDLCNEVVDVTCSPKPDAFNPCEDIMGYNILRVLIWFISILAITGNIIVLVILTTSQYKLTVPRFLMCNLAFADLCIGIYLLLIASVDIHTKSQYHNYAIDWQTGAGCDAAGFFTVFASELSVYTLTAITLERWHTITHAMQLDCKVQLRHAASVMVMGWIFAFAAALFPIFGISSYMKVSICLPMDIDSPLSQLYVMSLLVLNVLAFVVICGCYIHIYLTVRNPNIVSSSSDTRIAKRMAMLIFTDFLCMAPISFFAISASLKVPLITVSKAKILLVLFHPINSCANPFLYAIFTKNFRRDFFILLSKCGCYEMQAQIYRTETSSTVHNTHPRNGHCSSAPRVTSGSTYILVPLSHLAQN
Put plainly: FSH receptor-dependent CRE-luciferase reporter gene assay (CHO FSH-R 6CRE-Luc cells). The following applies: positive control. The text has this: Follicle-Stimulating Hormone Receptor-Dependent CRE-Luciferase Reporter Gene Assay for the Identification of Follicle-Stimulating Hormone (FSH) Antagonists
This procedure was used to identify and determine the relative potencies of human FSH receptor antagonists using a Chinese hamster ovarian cell line that stably produces the human FSH receptor and a luciferase reporter gene regulated by cAMP response elements.
• Compound Vehicle: Stock compounds were solubilized in an appropriate vehicle, preferably phosphate buffered saline (PBS) or dimethyl sulfoxide (DMSO), at 30 mM. The compounds were subsequently diluted in DMSO to working dilutions of 1 and 20 or 30 mM for 2-dose testing format and 1 μM-10 mM for dose-response format. The DMSO dilutions were diluted 500-fold in sterile growth medium [D-MEM/F-12 (GIBCO/BRL; Grand Island N.Y.) containing 15 mM HEPES, 2 mM 1-glutamine, pyridoxine hydrochloride, phenol red and 5% FetalClone II (HyClone Laboratories, Inc; Logan, Utah), 0.2% DMSO, 100 units penicillin G/ml, and 100 μg streptomycin sulfate/ml (GIBCO/BRL)]. The concentration of the vehicle in each of the compound dilutions was the same. • Positive Controls: Purified human FSH (>98%) was purchased from Cortex Biochem, Inc. (San Leandro, Calif.) and WAY-162002 (an FSH-R thiazolidinone antagonist) was obtained from the Wyeth Research compound repository. Preparation of Cells […]

For assay [2], the target named is T2, hFSH-R (Homo sapiens, UniProt P23945).
T2 construct: expressed in transfected cells; host or cells: CHO-3D2 cells
T2 sequence (P23945 18-695): T1 sequence (P23945 18-695)
Put plainly: cAMP accumulation bio-assay in CHO-3D2 cells (hFSH-R), RIA. Here is the method:
In vitro Bio-Assay of Agonists and Antagonists to the FSH Repeptor. Selectivity and Dependency of Agonists and Antagonists to the FSH Receptor
This assay was used to verify in vitro potency, efficacy, selectivity and receptor dependency of hits found to inhibit an FSH-R-CRE-luciferase driven reporter.
Compound Vehicle: Stock compounds were solubilized in 100% DMSO (Sigma Chemical Co.) at a concentration of 30 mM. The compounds were subsequently diluted in sterile assay medium consisting of Opti-MEM® I (Life Technologies) with 0.1% (w/v) BSA (Sigma), prior to use in the bio-assay. The final concentration of DMSO in the assay is 0.1%.
The day prior to the experiment, CHO-3D2 cells (hFSH-R)(1) were plated into 96-well tissue culture plates (Falcon) at a density of 30,000 cells/well in DMEM/F12 medium (Life Technologies) supplemented with 5% Fetal Clone II (Hyclone), 2 mM L-glutamine (Life Technologies) and penicillin/streptomycin (100 U/ml, Life Technologies). Plated cells are then incubated at 37° C. in a humidified 5% CO2/95% air, atmosphere.
On the day of the assay, cells were washed three times with 100 μl/well of assay medium consisting of Opti-MEM® I (Life Technologies) with 0.1% (w/v) BSA (Sigma). Medium was removed and 100 μl of assay medium was added to each well. Plates were incubated for an additional 30 minutes at 37° C. Medium was then removed and cells were challenged for 30 minutes at 37° C. in 50 μl of assay media containing vehicle, purified hFSH (>95% pure; Cortex Biochem, Inc., San Leandro, Calif.) in the presence or absence of test compounds. Reactions were terminated by the addition of 50 μl of 0.2N hydrochloric acid to each well and cAMP-accumulation was measured by radioimmunoassay (RIA) using a commercially available kit (Amersham).
All test compounds were evaluated in a dose-response paradigm ranging from 0.01 to 30 μM. Controls and test compounds were evaluated in quadruplicate in a 96-well format. Cells were treated with vehicle, hFSH at EC20 (1.85 ng/mL is 53 pM), or the compounds in the presence or absence of hFSH at its EC20 dose. The ability of the compounds to inhibit the cAMP-accumulation induced by hFSH was evaluated by RIA.
In every assay the EC20 concentration was calculated and only those experiments in which the EC20 concentrations were equal to 1.85±0.4 ng/mL were accepted as valid. […]
cAMP accumulation is expressed as fmol/ml. cAMP accumulation in the agonist mode, or the ability of the compound to inhibit hFSH-, hTSH-, or forskolin-induced cAMP-accumulation in the antagonist mode, was compared to the appropriate negative and positive controls. Data were analyzed by one-way analysis of variance and significant differences between treatments and control determined by Least Significant Difference test. […]
For orientation: Cyclic AMP is a second messenger, typically raised through Gs and lowered through Gi signalling.

The target in assay [3] is T3, hTSH-R (Homo sapiens, UniProt P16473).
T3 construct: expressed in transfected cells; host or cells: CHO-25 cells
The assay is described as follows: Selectivity study: cAMP accumulation in CHO-25 (hTSH-R) cells. As for the experimental part:
cAMP accumulation assays using CHO-25 (hTSH-R) cells were performed as described above for the CHO-3D2 cells with the following exceptions: CHO-25 cells were plated at a density of 50,000 cells/well (2). All test compounds were evaluated in a dose-response paradigm ranging from 0.01 to 30 μM. Controls and test compounds were evaluated in quadruplicate. Cells were treated with vehicle, hTSH at EC20 (5nM; hTSH>98% pure, Cortex Biochem, Inc.), or the compounds in the presence or absence of the hTSH at its EC20 concentration. The ability of the compounds to inhibit cAMP-accumulation induced by hTSH was evaluated by RIA.
Along with the test compounds, hTSH was also run as a positive control in the agonist mode using concentrations ranging from 0.01 μM-1000 l μM.
cAMP accumulation is expressed as fmol/ml. cAMP accumulation in the agonist mode, or the ability of the compound to inhibit hFSH-, hTSH-, or forskolin-induced cAMP-accumulation in the antagonist mode, was compared to the appropriate negative and positive controls. Data were analyzed by one-way analysis of variance and significant differences between treatments and control determined by Least Significant Difference test.

[4] abbreviates: agonist mode, four-parameter logistic equation.

“hFSH: Purified human FSH (>98%) purchased from Cortex Biochem, Inc.; positive control”: in assay [1], the “EC50 in CRE-luciferase assay” value worked out at 0.4 ng/mL and the “EC100 in CRE-luciferase assay” value was 1000 ng/mL. Moreover, in assay [2] (1.85 ng/mL expressed in pM), the “EC20, cAMP accumulation” value was 53 pM. For the same substance, in assay [2] (setting [4]), the “apparent EC20, cAMP accumulation” value was 1.85 ng/mL; the “apparent EC50, cAMP accumulation” value was found to be 6.03 ng/mL; the “apparent EC80, cAMP accumulation” value amounted to 22.55 ng/mL.

In the case of “hTSH: hTSH >98% pure, Cortex Biochem, Inc.; agonist control in selectivity assay”, the “EC20, cAMP accumulation” value in assay [3] is reported as 5 nM.
